## Membrane permeability of cyclic peptides

PAMPA measures passive passage through an artificial lipid membrane.
Permeability is given as log10 of P in cm/s; higher (less negative) is more permeable.

Listed for CC(C)C[C@H]1C(=O)N[C@@H](Cc2ccccc2)CC(=O)N2CCC[C@H]2C(=O)N(Cc2ccccc2)CC(=O)N[C@@H](Cc2ccccc2)C(=O)N(C)[C@H](C)C(=O)N1C: PAMPA -5.36 (log10 cm/s). CC(C)C[C@@H]1C(=O)N(C)[C@@H](CC(C)C)C(=O)N2CCC[C@@H]2C(=O)N[C@H](CC(C)C)C(=O)N[C@@H](Cc2ccccc2)C(=O)N2CCC[C@H]2C(=O)N[C@@H](Cc2ccccc2)CC(=O)N1C has PAMPA -5.65 (log10 cm/s). CC(C)C[C@H]1C(=O)N(Cc2ccccc2)CC(=O)N2CCC[C@H]2C(=O)N(Cc2ccccc2)CC(=O)N[C@@H](Cc2ccccc2)C(=O)N[C@H](C)C(=O)N1C is reported with PAMPA -5.34 (log10 cm/s). CCCN1CC(=O)N(C)[C@H](CC(C)C)C(=O)N(Cc2ccccc2)CC(=O)N2CCC[C@@H]2C(=O)N(Cc2ccccc2)CC(=O)N[C@@H](Cc2ccccc2)C1=O is reported with PAMPA -5.76 (log10 cm/s).

For CC(C)C[C@@H]1NC(=O)C[C@H](Cc2ccccc2)NC(=O)[C@H](Cc2ccccc2)NC(=O)CN(Cc2ccccc2)C(=O)[C@@H]2CCCN2C(=O)[C@@H](CC(C)C)N(C)C1=O the data give PAMPA -5.60 (log10 cm/s). CC(C)C[C@H]1NC(=O)[C@H]2CCCN2C(=O)CN(Cc2ccccc2)C(=O)CN(Cc2ccccc2)C(=O)[C@H](C)N(C)C(=O)[C@H]2CCCN2C(=O)[C@H](Cc2ccccc2)NC1=O is reported with PAMPA -6.02 (log10 cm/s). For CCCN1CC(=O)N(C)[C@H](CC(C)C)C(=O)N[C@@H](CC(C)C)C(=O)N2CCC[C@@H]2C(=O)N(Cc2ccccc2)CC(=O)N[C@@H](Cc2ccccc2)C1=O the data give PAMPA -5.37 (log10 cm/s). For CC(C)C[C@@H]1C(=O)N2CCC[C@@H]2C(=O)N(Cc2ccccc2)CC(=O)N[C@@H](Cc2ccccc2)C(=O)N2CCC[C@@H]2C(=O)N[C@H](C)C(=O)N(Cc2ccccc2)CC(=O)N1C the data give PAMPA -6.05 (log10 cm/s).

The entry for CC(C)C[C@@H]1NC(=O)C[C@H](Cc2ccccc2)NC(=O)[C@@H]2CCCN2C(=O)[C@H](Cc2ccccc2)NC(=O)CN(Cc2ccccc2)C(=O)[C@H]2CCCN2C(=O)CN(Cc2ccccc2)C1=O lists PAMPA -5.87 (log10 cm/s). Listed for CC(C)C[C@H]1C(=O)N(C)[C@@H](CC(C)C)C(=O)N2CCC[C@@H]2C(=O)N(Cc2ccccc2)CC(=O)N[C@@H](Cc2ccccc2)C(=O)N2CCC[C@@H]2C(=O)N[C@@H](Cc2ccccc2)CC(=O)N1C: PAMPA -5.14 (log10 cm/s). For CC(C)C[C@H]1NC(=O)C[C@H](Cc2ccccc2)NC(=O)[C@H](Cc2ccccc2)NC(=O)CN(Cc2ccccc2)C(=O)[C@@H]2CCCN2C(=O)CN(Cc2ccccc2)C1=O the data give PAMPA -6.02 (log10 cm/s). The entry for CCCN1CC(=O)N(Cc2ccccc2)CC(=O)N(Cc2ccccc2)CC(=O)N2CCC[C@@H]2C(=O)N[C@H](CC(C)C)C(=O)N[C@@H](Cc2ccccc2)C(=O)N2CCC[C@@H]2C1=O lists PAMPA -5.96 (log10 cm/s).

The entry for CC(C)C[C@H]1NC(=O)C[C@H](Cc2ccccc2)NC(=O)[C@@H]2CCCN2C(=O)[C@H](Cc2ccccc2)NC(=O)CN(Cc2ccccc2)C(=O)[C@@H]2CCCN2C(=O)C[C@H](Cc2ccccc2)NC1=O lists PAMPA -6.22 (log10 cm/s). CC(C)C[C@H]1NC(=O)C[C@H](Cc2ccccc2)NC(=O)[C@H](Cc2ccccc2)NC(=O)CN(Cc2ccccc2)C(=O)[C@H]2CCCN2C(=O)CN(Cc2ccccc2)C1=O is reported with PAMPA -5.79 (log10 cm/s). The entry for CC(C)C[C@@H]1NC(=O)[C@@H]2CCCN2C(=O)C[C@H](Cc2ccccc2)NC(=O)CN(Cc2ccccc2)C(=O)[C@@H](C)NC(=O)[C@H](Cc2ccccc2)NC1=O lists PAMPA -6.07 (log10 cm/s). Listed for CCCN1CC(=O)N(Cc2ccccc2)CC(=O)N[C@@H](Cc2ccccc2)CC(=O)N2CCC[C@H]2C(=O)N(C)[C@H](CC(C)C)C(=O)N[C@@H](Cc2ccccc2)C(=O)N2CCC[C@@H]2C1=O: PAMPA -5.91 (log10 cm/s).

For CCCN1CC(=O)N(Cc2ccccc2)CC(=O)N(Cc2ccccc2)CC(=O)N2CCC[C@@H]2C(=O)N(Cc2ccccc2)CC(=O)N[C@@H](Cc2ccccc2)C1=O the data give PAMPA -5.92 (log10 cm/s). Listed for CC(C)C[C@@H]1NC(=O)[C@H]2CCCN2C(=O)C[C@H](Cc2ccccc2)NC(=O)CN(Cc2ccccc2)C(=O)C[C@H](Cc2ccccc2)NC(=O)[C@H](Cc2ccccc2)NC1=O: PAMPA -6.41 (log10 cm/s). The entry for CC(C)C[C@H]1C(=O)N(Cc2ccccc2)CC(=O)N2CCC[C@H]2C(=O)N(Cc2ccccc2)CC(=O)N[C@@H](Cc2ccccc2)C(=O)N[C@@H](C)C(=O)N1C lists PAMPA -5.50 (log10 cm/s). For CC(C)C[C@H]1C(=O)N[C@@H](Cc2ccccc2)C(=O)N2CCC[C@H]2C(=O)N[C@@H](C)C(=O)N(Cc2ccccc2)CC(=O)N(Cc2ccccc2)CC(=O)N2CCC[C@H]2C(=O)N1C the data give PAMPA -6.02 (log10 cm/s).

For CC(C)C[C@H]1C(=O)N2CCC[C@@H]2C(=O)N(Cc2ccccc2)CC(=O)N[C@@H](Cc2ccccc2)C(=O)N2CCC[C@@H]2C(=O)N[C@@H](C)C(=O)N(Cc2ccccc2)CC(=O)N1C the data give PAMPA -5.96 (log10 cm/s). CC(C)C[C@H]1C(=O)N2CCC[C@H]2C(=O)N(Cc2ccccc2)CC(=O)N[C@@H](Cc2ccccc2)C(=O)N2CCC[C@@H]2C(=O)N[C@@H](C)C(=O)N(Cc2ccccc2)CC(=O)N1C has PAMPA -5.89 (log10 cm/s).

A selection of 3 entries from above:

structure (SMILES)	PAMPA (log10 cm/s)
CC(C)C[C@H]1C(=O)N2CCC[C@@H]2C(=O)N(Cc2ccccc2)CC(=O)N[C@@H](Cc2ccccc2)C(=O)N2CCC[C@@H]2C(=O)N[C@@H](C)C(=O)N(Cc2ccccc2)CC(=O)N1C	-5.96
CCCN1CC(=O)N(C)[C@H](CC(C)C)C(=O)N(Cc2ccccc2)CC(=O)N2CCC[C@@H]2C(=O)N(Cc2ccccc2)CC(=O)N[C@@H](Cc2ccccc2)C1=O	-5.76
CC(C)C[C@@H]1NC(=O)C[C@H](Cc2ccccc2)NC(=O)[C@@H]2CCCN2C(=O)[C@H](Cc2ccccc2)NC(=O)CN(Cc2ccccc2)C(=O)[C@H]2CCCN2C(=O)CN(Cc2ccccc2)C1=O	-5.87

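Conditions beyond the assay type are not listed; see the original paper. The list need not hold all peptides of the study. Entries at the database's floor value (log10 P of -10) are not listed.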

Source: CycPeptMPDB (Li et al. 2023), which took these values from Townsend et al. 2020, doi:10.26434/chemrxiv.13335941.v1.